pKi: −log10 of the molar value.
Assays:
[1] = target: T1, Tyrosine-protein phosphatase non-receptor type 2 (Homo sapiens, UniProt P17706)
T1 sequence (P17706 whole entry): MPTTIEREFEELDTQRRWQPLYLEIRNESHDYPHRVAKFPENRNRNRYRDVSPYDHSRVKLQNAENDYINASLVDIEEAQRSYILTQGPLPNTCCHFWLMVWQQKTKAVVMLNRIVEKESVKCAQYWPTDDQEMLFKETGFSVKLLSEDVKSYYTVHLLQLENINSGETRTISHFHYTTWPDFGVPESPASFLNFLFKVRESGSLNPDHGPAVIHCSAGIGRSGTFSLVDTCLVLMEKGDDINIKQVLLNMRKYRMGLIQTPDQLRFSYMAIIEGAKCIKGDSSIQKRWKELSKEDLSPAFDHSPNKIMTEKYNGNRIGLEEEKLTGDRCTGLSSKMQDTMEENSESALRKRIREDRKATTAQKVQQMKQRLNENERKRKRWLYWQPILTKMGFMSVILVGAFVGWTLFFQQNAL

[2] = target: T2, Tyrosine-protein phosphatase non-receptor type 1 (Homo sapiens, UniProt P18031); assay: Inhibition of human recombinant PTP1B
T2 sequence (P18031 whole entry): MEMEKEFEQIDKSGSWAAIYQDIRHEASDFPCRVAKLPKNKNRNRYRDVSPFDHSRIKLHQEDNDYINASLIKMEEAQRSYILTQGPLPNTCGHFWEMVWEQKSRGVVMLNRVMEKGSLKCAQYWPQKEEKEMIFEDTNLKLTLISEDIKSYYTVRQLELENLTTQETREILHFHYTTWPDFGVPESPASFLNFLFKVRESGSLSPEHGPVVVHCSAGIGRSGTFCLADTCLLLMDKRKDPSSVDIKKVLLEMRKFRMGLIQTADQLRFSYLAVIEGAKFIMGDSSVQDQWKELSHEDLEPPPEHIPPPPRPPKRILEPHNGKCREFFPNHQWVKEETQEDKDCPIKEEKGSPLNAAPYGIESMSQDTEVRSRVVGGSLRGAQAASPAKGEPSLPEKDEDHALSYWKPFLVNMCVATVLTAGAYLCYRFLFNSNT

pKi [1]	pKi [2]	Structure (SMILES)
8.05	–	Cc1cccc(C)c1NC(=O)N1CCC(CNc2cccc(-c3sc(C(=O)O)c(OCC(=O)O)c3Br)c2)CC1
–	6.33	O=C(O)COc1c(C(=O)O)sc(-c2cccc(NCc3ccccc3)c2)c1Br
–	6.68	O=C(O)COc1c(C(=O)O)sc(-c2cccc(NC3CCCCC3)c2)c1Br
8.30	–	O=C(O)COc1c(C(=O)O)sc(-c2cccc(NC3CCN(S(=O)(=O)Cc4ccccc4)CC3)c2)c1Br

From ChEMBL document CHEMBL1148776, “Structure-based optimization of protein tyrosine phosphatase 1B inhibitors: from the active site to the second phosphotyrosine binding site” (J Med Chem, 2007)
